Reference: patent publication US6579900B2, “Anandamide amidase inhibitors as analgesic agents” (priority 1996, dated 2003)

Chains of the proteins cited; added tags and fusions are not shown.
UniProt O08914, whole entry: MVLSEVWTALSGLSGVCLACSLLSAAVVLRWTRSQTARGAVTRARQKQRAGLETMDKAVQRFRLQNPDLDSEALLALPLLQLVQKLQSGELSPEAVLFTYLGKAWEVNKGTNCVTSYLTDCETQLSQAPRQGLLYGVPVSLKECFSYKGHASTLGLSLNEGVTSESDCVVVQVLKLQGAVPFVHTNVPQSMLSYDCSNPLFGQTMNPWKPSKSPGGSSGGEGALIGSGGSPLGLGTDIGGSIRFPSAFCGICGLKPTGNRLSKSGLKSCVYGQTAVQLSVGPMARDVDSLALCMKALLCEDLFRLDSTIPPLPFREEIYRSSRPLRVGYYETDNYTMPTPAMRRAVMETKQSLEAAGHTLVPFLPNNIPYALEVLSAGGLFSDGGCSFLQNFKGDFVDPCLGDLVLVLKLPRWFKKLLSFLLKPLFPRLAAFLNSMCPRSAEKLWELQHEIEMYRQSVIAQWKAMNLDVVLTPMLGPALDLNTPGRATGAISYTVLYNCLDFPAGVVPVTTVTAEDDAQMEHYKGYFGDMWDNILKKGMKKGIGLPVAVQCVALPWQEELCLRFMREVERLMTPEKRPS
UniProt P20272, whole entry: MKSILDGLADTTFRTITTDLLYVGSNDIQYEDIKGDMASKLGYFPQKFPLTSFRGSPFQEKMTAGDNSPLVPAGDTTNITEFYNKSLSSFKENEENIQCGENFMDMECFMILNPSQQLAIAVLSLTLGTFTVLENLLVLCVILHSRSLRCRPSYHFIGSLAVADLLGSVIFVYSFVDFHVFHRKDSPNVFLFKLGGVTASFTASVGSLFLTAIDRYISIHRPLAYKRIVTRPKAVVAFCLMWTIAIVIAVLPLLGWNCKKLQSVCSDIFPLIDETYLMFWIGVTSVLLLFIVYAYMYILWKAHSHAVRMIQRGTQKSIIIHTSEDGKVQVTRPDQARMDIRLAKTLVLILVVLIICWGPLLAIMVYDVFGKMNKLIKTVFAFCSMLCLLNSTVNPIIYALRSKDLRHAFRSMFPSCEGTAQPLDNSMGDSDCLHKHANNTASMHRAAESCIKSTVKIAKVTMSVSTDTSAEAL

Tests used:
[1] = molecular target: T1, anandamide amidase (Mus musculus, UniProt O08914); experiment: Anandamide amidase assay in intact neuroblastoma cells ([3H]anandamide levels); format: cell-based
T1 construct: The assay of the anandamide amidase in intact neuroblastoma cells; endogenous in cells; host or cells: N18TG2 neuroblastoma cells

[2] = tested on: male MF1 mice; experiment: Tail flick test of analgesia ("rat flick test"); settings: intravenous, tail flick at 12 minutes, percent maximum possible effect
[3] = molecular target: T2, CB1 receptor (Rattus norvegicus, UniProt P20272); experiment: biochemical; format: binding
T2 construct: brain membranes were prepared from frozen rat brains; from tissue; host or cells: membranes from frozen rat brains

Row | Structure (SMILES) | potency at inhibiting anandamide amidase relative to phenylmethylsulfonyl fluoride ([1]; intact neuroblastoma cells) | radioactivity found in anandamide rather than in cleavage products ([1]; nanomolar amounts of inhibitor, N18TG2 cells) | effectiveness at producing analgesia relative to anandamide alone [2] | effectiveness at producing analgesia relative to the vehicle [2] | Ki [3]
1 | CCCCCCCCCCCCCCCCS(=O)(=O)F [palmitylsulfonyl fluoride] | more than 100 fold | over 50% | about 3 × | about 13 × | 
2 | CCCCC/C=C\C/C=C\C/C=C\C/C=C\CCCC(=O)NCCO [arachidonoyl ethanolamide, reference compound] |  |  |  |  | 70 nM
